{"sequences": {"note": "By UniProt entry, the sequences of proteins in these tests, tags left out.", "UniProt P20309, whole entry Y149C/A239G": "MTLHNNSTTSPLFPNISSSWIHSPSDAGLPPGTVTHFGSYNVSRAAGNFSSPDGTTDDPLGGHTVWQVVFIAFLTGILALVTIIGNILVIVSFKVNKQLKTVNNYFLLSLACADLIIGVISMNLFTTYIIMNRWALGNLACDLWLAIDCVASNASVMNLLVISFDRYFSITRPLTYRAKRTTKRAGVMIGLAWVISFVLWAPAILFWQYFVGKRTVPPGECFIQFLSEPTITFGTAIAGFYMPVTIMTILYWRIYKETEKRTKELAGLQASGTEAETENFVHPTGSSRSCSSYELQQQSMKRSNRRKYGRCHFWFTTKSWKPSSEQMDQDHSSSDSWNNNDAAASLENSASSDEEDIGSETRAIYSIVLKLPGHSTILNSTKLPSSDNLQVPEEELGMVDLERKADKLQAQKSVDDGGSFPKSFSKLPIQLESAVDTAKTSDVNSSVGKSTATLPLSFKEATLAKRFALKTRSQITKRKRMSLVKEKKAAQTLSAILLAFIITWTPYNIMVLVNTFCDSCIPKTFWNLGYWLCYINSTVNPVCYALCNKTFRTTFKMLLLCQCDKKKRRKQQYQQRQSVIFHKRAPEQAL"}, "source": "paper PMC6788984", "about": "“High-potency ligands for DREADD imaging and activation in rodents and monkeys” (Nature Communications, 2019)", "biological_target": "hM3Dq (Homo sapiens, UniProt P20309, A239G/Y149C)", "assay": "[3H]clozapine competition binding, membranes of HEK-293 cells expressing hM3Dq", "data": [{"smiles": "CCN1CCN(C2=Nc3ccccc3Nc3ccccc32)CC1", "note": "[C22, reference compound]", "values": [{"measurement": "Ki", "result": 11, "unit": "nM"}]}]}
